For one substance, IC50 (µg/ml) of actin for inhibition of DNase I catalytic activity, DNA-methyl green assay, IC50 (µg/ml) of actin for inhibition of DNase I catalytic activity, DNA-methyl green assay; Prh DNase I batch 1 and IC50 (µg/ml) of actin for inhibition of DNase I catalytic activity, DNA-methyl green assay; Prh DNase I batch 2 results are on record in patent US20150010617A1.

Holding throughout (test): cell-based or functional assay
The target in experiment [1] is Pulmozyme® (dornase alfa), mammalian (CHO) cell expressed recombinant human DNase I (human) (UniProt P24855).
For experiment [2], the target named is plant-expressed recombinant human DNase I (human) (UniProt P24855).
Experiment [3] addresses Pulmozyme® (dornase alfa), mammalian (CHO) cell expressed recombinant human DNase I (human) (UniProt P24855). This is another data set of the same source.
In experiment [4] the target is plant-expressed recombinant human DNase I (human) (UniProt P24855). This is another data set of the same source.

Like-named read-outs stand apart in the source and are kept apart here.

With “human non-muscle actin (Cytoskeleton; cat No. APHL99) (from UniProt P60709 2-375)”, the IC50 (µg/ml) of actin for inhibition of DNase I catalytic activity, DNA-methyl green assay came out at 0.546 µg/mL in experiment [1], 0.687 µg/mL in experiment [3] and 1.82 µg/mL in experiment [4]. Further, the IC50 (µg/ml) of actin for inhibition of DNase I catalytic activity, DNA-methyl green assay; Prh DNase I batch 1 in experiment [2] turned out to be 1.71 µg/mL. Also, in experiment [2], the IC50 (µg/ml) of actin for inhibition of DNase I catalytic activity, DNA-methyl green assay; Prh DNase I batch 2 stood at 1.85 µg/mL.
